Data from patent US10053462B2, “P2X7 modulators” (Jansssen Pharmaceutica NV, priority 2013, dated 2018).

Sequences of proteins named here, by UniProt entry; tags and fusion partners are left off. A change or cut given only in a name is not applied to a line headed by its entry.
UniProt Q99572: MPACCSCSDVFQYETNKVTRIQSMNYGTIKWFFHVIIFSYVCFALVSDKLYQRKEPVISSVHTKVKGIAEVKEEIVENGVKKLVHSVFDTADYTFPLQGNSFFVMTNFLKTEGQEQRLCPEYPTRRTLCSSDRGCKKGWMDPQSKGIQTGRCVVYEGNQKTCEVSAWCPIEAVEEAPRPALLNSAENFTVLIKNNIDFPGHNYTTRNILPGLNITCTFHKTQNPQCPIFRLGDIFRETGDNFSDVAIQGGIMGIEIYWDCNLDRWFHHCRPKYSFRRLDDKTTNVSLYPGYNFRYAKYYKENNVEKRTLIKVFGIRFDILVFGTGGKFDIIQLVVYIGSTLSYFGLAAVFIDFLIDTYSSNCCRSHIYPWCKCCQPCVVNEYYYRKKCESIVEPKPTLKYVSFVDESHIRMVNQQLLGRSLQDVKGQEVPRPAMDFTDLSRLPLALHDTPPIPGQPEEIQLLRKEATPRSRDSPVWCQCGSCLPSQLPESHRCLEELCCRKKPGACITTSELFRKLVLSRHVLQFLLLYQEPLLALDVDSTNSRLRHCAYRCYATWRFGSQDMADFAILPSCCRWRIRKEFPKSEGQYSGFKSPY

Target: P2X7 (Homo sapiens (Human), UniProt Q99572)
Test: P2X7 antagonism in human peripheral blood mononuclear cells (PBMCs), IL-1β release
Assay type: cell-based
Details: LPS 30 ng/ml + Bz-ATP 0.5 mM; for remaining activity at 10 µM: read-out: PBMC 10 μM (% control)
[1] = P2X7, Table 2 (additional runs), 10 μM compound

Row | Compound | PBMC 10 μM (% control) (Table 1, 10 μM compound) | further results
1 | O=C(c1cccc(C(F)(F)F)c1Cl)N1[C@H]2CCC[C@@H]1c1nnc(-c3ccccn3)n1C2 (relative stereo) [Example 32, (6S*,10R*)-11-{[2-Chloro-3-(trifluoromethyl)phenyl]carbonyl}-3-pyridin-2-yl-5,6,7,8,9,10-hexahydro-6,10-epimino[1,2,4]triazolo[4,3-a]azocine] | 94.5 % control | PBMC 10 μM (% control) (Table 2 (additional runs), 10 μM compound): 94.5 % control
2 | O=C(c1cccc(C(F)(F)F)c1Cl)N1[C@@H]2CCC[C@H]1c1nnc(-c3ccc(F)cc3)n1C2 (stereo in doubt) [Example 6, (6R*,10S*)-11-{[2-Chloro-3-(trifluoromethyl)phenyl]carbonyl}-3-(4-fluorophenyl)-5,6,7,8,9,10-hexahydro-6,10-epimino[1,2,4]triazolo[4,3-a]azocine] | – | remaining activity at 10 µM (P2X7, Table 1, 10 μM compound): 5.8%; remaining activity at 10 µM [1]: 5.8%
3 | O=C(c1cccc(C(F)(F)F)c1Cl)N1[C@@H]2CCC[C@H]1c1nnc(-c3cccnc3)n1C2 (stereo in doubt) [Example 15, (6R*,10S*)-11-{[2-Chloro-3-(trifluoromethyl)phenyl]carbonyl}-3-pyridin-3-yl-5,6,7,8,9,10-hexahydro-6,10-epimino[1,2,4]triazolo[4,3-a]azocine] | 89.8 % control | –
4 | O=C(c1cccc(C(F)(F)F)c1Cl)N1[C@H]2CCC[C@@H]1c1nnc(-c3ncc(F)cn3)n1C2 (stereo in doubt) [Example 17, (6S*,10R*)-11-{[2-Chloro-3-(trifluoromethyl)phenyl]carbonyl}-3-(5-fluoropyrimidin-2-yl)-5,6,7,8,9,10-hexahydro-6,10-epimino[1,2,4]triazolo[4,3-a]azocine] | 84.2 % control | –
5 | O=C(c1ccc(Cl)cc1Cl)N1[C@H]2CCC[C@@H]1c1nnc(-c3ncc(F)cn3)n1C2 (stereo in doubt) [Example 20, (6S*,10R*)-11-[(2,4-Dichlorophenyl)carbonyl]-3-(5-fluoropyrimidin-2-yl)-5,6,7,8,9,10-hexahydro-6,10-epimino[1,2,4]triazolo[4,3-a]azocine] | 104.2 % control | –
6 | Cc1ccc(-c2nnc3n2C[C@@H]2CCC[C@H]3N2C(=O)c2ccnc(C(F)(F)F)c2Cl)s1 (stereo in doubt) [Example 38, (6S*,10R*)-11-{[3-Chloro-2-(trifluoromethyl)pyridin-4-yl]carbonyl}-3-(5-methylthiophen-2-yl)-5,6,7,8,9,10-hexahydro-6,10-epimino[1,2,4]triazolo[4,3-a]azocine] | 101.0 % control | remaining activity at 10 µM [1]: 101%
7 | O=C(c1cccc(C(F)(F)F)c1Cl)N1[C@H]2CC[C@@H]1c1nnc(-c3cnccn3)n1C2 [Example 42, (6S,9R)-10-{[2-Chloro-3-(trifluoromethyl)phenyl]carbonyl}-3-pyrazin-2-yl-6,7,8,9-tetrahydro-5H-6,9-epimino[1,2,4]triazolo[4,3-a]azepine] | −21.3 % control | –
8 | O=C(c1ccc(F)c(C(F)(F)F)c1Cl)N1[C@H]2CC[C@@H]1c1nnc(-c3ccccn3)n1C2 [Example 43, (6S,9R)-10-{[2-Chloro-4-fluoro-3-(trifluoromethyl)phenyl]carbonyl}-3-pyridin-2-yl-6,7,8,9-tetrahydro-5H-6,9-epimino[1,2,4]triazolo[4,3-a]azepine] | −18.6 % control | –
9 | O=C(c1cccc(C(F)(F)F)c1Cl)N1[C@H]2CC[C@@H]1c1nnc(-c3ncc(F)cn3)n1C2 [Example 50, (6S,9R)-10-{[2-Chloro-3-(trifluoromethyl)phenyl]carbonyl}-3-(5-fluoropyrimidin-2-yl)-6,7,8,9-tetrahydro-5H-6,9-epimino[1,2,4]triazolo[4,3-a]azepine] | 10.4 % control | –
10 | O=C(c1cccc(C(F)(F)F)c1Cl)N1[C@H]2CC[C@@H]1c1nnc(-c3ccc(Cl)s3)n1C2 [Example 55, (6S,9R)-3-(5-Chlorothiophen-2-yl)-10-{[2-chloro-3-(trifluoromethyl)phenyl]carbonyl}-6,7,8,9-tetrahydro-5H-6,9-epimino[1,2,4]triazolo[4,3-a]azepine] | 15.3 % control | –
11 | Cc1nc(-c2nnc3n2C[C@@H]2CC[C@H]3N2C(=O)c2cccc(C(F)(F)F)c2Cl)cs1 [Example 56, (6S,9R)-10-{[2-Chloro-3-(trifluoromethyl)phenyl]carbonyl}-3-(2-methyl-1,3-thiazol-4-yl)-6,7,8,9-tetrahydro-5H-6,9-epimino[1,2,4]triazolo[4,3-a]azepine] | 25.9 % control | –
12 | O=C(c1cccc(C(F)(F)F)c1Cl)N1[C@H]2CC[C@@H]1c1nnc(-c3cccs3)n1C2 [Example 61, (6S,9R)-10-{[2-Chloro-3-(trifluoromethyl)phenyl]carbonyl}-3-thiophen-2-yl-6,7,8,9-tetrahydro-5H-6,9-epimino[1,2,4]triazolo[4,3-a]azepine] | 11.2 % control | –
13 | O=C(c1cccc(C(F)(F)F)c1Cl)N1[C@H]2CC[C@@H]1c1nnc(-c3ccc[nH]3)n1C2 [Example 62, (6S,9R)-10-{[2-Chloro-3-(trifluoromethyl)phenyl]carbonyl}-3-(1H-pyrrol-2-yl)-6,7,8,9-tetrahydro-5H-6,9-epimino[1,2,4]triazolo[4,3-a]azepine] | 14.1 % control | –

Read-outs that look alike come from different tables or passages of the source.
